Laboratory results as given in PubChem BioAssay AID602143 (Vanderbilt Specialized Chemistry Center, 2011).
Only a part is listed here, and it is no random draw. Calls of active or inactive are those of the source. Cut-off read from the data, not from the text of the source: active = remaining activity below about 50%; inactive = the rest.

By UniProt entry, the sequences of proteins in these tests, tags left out.
UniProt O14939, whole entry, looked up: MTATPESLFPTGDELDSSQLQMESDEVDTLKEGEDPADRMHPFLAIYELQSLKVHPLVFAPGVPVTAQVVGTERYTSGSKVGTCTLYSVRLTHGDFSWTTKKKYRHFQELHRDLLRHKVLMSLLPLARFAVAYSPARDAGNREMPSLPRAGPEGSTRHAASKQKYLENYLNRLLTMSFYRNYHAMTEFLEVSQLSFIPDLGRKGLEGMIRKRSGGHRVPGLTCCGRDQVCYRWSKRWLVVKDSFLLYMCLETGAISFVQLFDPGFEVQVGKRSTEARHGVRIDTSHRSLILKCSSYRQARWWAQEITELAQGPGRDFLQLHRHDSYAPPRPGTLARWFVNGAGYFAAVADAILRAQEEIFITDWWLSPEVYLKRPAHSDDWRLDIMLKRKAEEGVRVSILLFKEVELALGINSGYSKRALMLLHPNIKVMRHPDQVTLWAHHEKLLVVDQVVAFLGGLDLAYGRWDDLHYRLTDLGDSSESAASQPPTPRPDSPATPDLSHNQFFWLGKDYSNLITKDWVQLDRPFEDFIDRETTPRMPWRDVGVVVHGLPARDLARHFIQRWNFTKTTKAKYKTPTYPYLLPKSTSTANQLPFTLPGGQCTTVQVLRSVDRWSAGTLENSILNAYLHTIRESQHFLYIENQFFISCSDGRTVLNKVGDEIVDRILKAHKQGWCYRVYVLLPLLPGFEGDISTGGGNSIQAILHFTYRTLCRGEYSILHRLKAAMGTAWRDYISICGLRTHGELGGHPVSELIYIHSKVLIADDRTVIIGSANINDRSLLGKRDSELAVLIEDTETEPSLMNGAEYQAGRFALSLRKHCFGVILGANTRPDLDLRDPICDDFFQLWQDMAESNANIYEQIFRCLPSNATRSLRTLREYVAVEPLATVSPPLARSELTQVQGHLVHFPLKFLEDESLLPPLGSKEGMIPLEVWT

Target: Phospholipase D2 (Homo sapiens) (UniProt O14939)
Assay: PLD2 inhibitors in cells, cell-based, HEK293, single concentration (AID 602143);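 note: tested at 200 nM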
Conditions: HEK293 cellular PLD2 activity, percent of control; stronger effect = lower value

O=C(CN1CCC(n2c(=O)[nH]c3ccccc32)CC1)c1ccccc1
remaining activity: inactive: 97.8%
